# Measured affinities in a library of Ab-14 heavy chain variants

Reference: Engelhart et al. 2022, doi:10.1038/s41597-022-01779-4. File: FLAb, binding data.

Target peptide (SARS-CoV-2 spike, HR2 region): PDVDLGDISGINAS

Parent: Ab-14, a human scFv built as VH, the linker GGGGSGGGGSGGGGS, VL. Only the CDRs of the heavy chain vary.
VH: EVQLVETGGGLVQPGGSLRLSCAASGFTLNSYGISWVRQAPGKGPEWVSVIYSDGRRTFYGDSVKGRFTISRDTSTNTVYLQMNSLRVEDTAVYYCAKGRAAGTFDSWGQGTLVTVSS
VL: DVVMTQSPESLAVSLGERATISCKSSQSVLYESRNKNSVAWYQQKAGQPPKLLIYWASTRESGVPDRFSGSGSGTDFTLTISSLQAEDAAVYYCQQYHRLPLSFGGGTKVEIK

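Phage display of a naive human antibody library on the peptide gave the parent. AAYL49 was designed without a model: most single CDR substitutions and a random sample of double and triple ones. The assay is AlphaSeq: two haploid yeast populations carry antibody and antigen on their surface. Pairs that bind mate more often; barcode pairs of the diploids are counted by sequencing. A regression on co-assayed BCL2-family reference pairs converts the normalised counts of each replicate to an apparent Kd. Mating was done three times.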

Changes read parent residue, position, new residue, counted from the first residue of the VH shown. The read-out is the apparent dissociation constant on a log10 scale (nM): the lower, the stronger. A mean of the replicates is given; it leaves out those without a signal. "nd" marks a missing value. The strain was present, yet no cells mated with the target were sequenced in that replicate, which points to weak or no binding. Empty control strains, which show no peptide, gave a signal in 15% of pairings with library AAYL49; the median was 4.06 and 95% of these signals were weaker than 2.83. No background was subtracted. Also given: how often the same scFv was detected with the empty control strains, with their mean in brackets.

| changes | replicates, log10 nM | mean log10 Kd (nM) | control signals |
|---|---|---|---|
| Y32L+D62P+S107N | nd nd nd | nd | 0 of 9 |
| S35Q+D54G+A102N | nd nd nd | nd | 1 of 9 (3.31) |
| S31Q+V64C+G103L | 0.54 0.86 0.72 | 0.71 | 0 of 9 |
| G33R+S35N+K65M | 3.43 2.76 nd | 3.10 | 1 of 9 (3.16) |
| S31M+V64H+S107H | nd nd nd | nd | 1 of 9 (2.94) |
| I51P+D106P | nd nd nd | nd | 2 of 9 (3.73) |
| I34N+D54F+R100C | nd nd nd | nd | 1 of 9 (3.88) |
| F27E+Y52T+D106Q | 0.63 0.89 0.71 | 0.74 | 3 of 9 (3.93) |
| L29E+Y32R+Y60M | nd 2.59 nd | 2.59 | 1 of 9 (3.90) |
| L29P+G61D+A102G | 1.16 1.20 1.21 | 1.19 | 0 of 9 |
| R56M+F59Y+V64L | 3.34 2.61 2.33 | 2.76 | 2 of 9 (4.45) |
| L29K+G55Q+A102K | nd nd nd | nd | 0 of 9 |
| I51V+S53I+R56V | 5.70 3.88 nd | 4.79 | 5 of 9 (4.50) |
| G61C+V64H | 3.97 3.32 nd | 3.65 | 4 of 9 (4.41) |
| I51P+R57S+G61V | nd nd nd | nd | 2 of 9 (3.68) |
| G55E+K65V+R100K | nd nd nd | nd | 0 of 9 |
| S53E+G103W+D106V | nd nd 5.33 | 5.33 | 1 of 9 (3.55) |
| G26D | 1.33 1.21 1.47 | 1.33 | 1 of 9 (3.57) |
| G33Q+A101N+G103E | nd nd nd | nd | 1 of 9 (4.35) |
| I34K+F105T+D106V | nd nd nd | nd | 2 of 9 (2.97) |
| R57I+F105Y+S107A | nd 3.93 nd | 3.93 | 2 of 9 (3.90) |
| N30S+D62E+V64D | nd nd nd | nd | 0 of 9 |
| I51H+A101P+T104Q | nd nd nd | nd | 0 of 9 |
| R56E+A102E+G103R | nd nd nd | nd | 2 of 9 (4.17) |
| D54N+A101H+A102M | nd nd nd | nd | 0 of 9 |
| S35I+V50E+T58I | nd 4.10 nd | 4.10 | 2 of 9 (3.75) |
| N30L+S35M+F105G | nd nd nd | nd | 1 of 9 (3.63) |
| T28A+Y32H+D54A | nd nd nd | nd | 1 of 9 (3.63) |
| I34E+F59S+A102M | 4.08 nd 4.98 | 4.53 | 2 of 9 (3.69) |
| S31A+G103I | 3.35 2.63 2.13 | 2.70 | 1 of 9 (4.39) |
| I51L+T58A+A101S | 1.11 1.36 1.43 | 1.30 | 2 of 9 (4.55) |
| F27V+T58N+Y60I | nd nd nd | nd | 0 of 9 |
| L29T+Y60H+G99N | nd nd nd | nd | 0 of 9 |
| N30P+F59C+Y60S | nd nd nd | nd | 1 of 9 (3.76) |
| T28C+I51A+D54A | nd nd 4.27 | 4.27 | 2 of 9 (4.07) |
| N30E+R57V+A102K | nd nd nd | nd | 0 of 9 |
| F27L+A102E | nd nd nd | nd | 2 of 9 (3.56) |
| D62S+K65G+G99F | nd nd nd | nd | 0 of 9 |
| G26I+T28C+N30V | nd nd 5.55 | 5.55 | 5 of 9 (4.40) |
| G33I+S35R+D106R | nd nd nd | nd | 0 of 9 |
| I34S+S35N+A102I | nd 2.54 nd | 2.54 | 0 of 9 |

A selection of 3 entries from above:

changes	replicates, log10 nM	mean log10 Kd (nM)	control signals
T28A+Y32H+D54A	nd nd nd	nd	1 of 9 (3.63)
G33R+S35N+K65M	3.43 2.76 nd	3.10	1 of 9 (3.16)
G33Q+A101N+G103E	nd nd nd	nd	1 of 9 (4.35)

In this assay the parent's reference entry averaged 0.65; its copy inside this library read 4.11 (one replicate of three).